{
  "source": "patent US9314474B2",
  "about": "“Formulations of 14-epi-analogues of vitamin D” (HYBRIGENICS, SA, priority 2010, dated 2016)",
  "details": "cynomolgus monkey, in vivo, po",
  "method": "Male cynomolgus monkey received a single oral administration of a high dose of inecalcitol (2 mg/kg) in the same volume (5 ml/kg) for each excipient. Blood samples were drawn at the time of administration (To) and 15, 30, 45, 60, 90 minutes, 3, 6, 9 and 24 hours later. Plasma aliquots were prepared on heparinized tubes and unchanged inecalcitol was specifically assayed by HPLC/MS/MS method.",
  "data": [
    {"substance": "Olive oil", "values": [
      {"measurement": "absorption of inecalcitol compared with MCT (in words)", "value": "better absorbed"},
      {"measurement": "AUC0-24 h (%)", "setting": "2 mg/kg", "value": 127, "unit": "%"},
      {"measurement": "Cmax (−fold)", "setting": "2 mg/kg", "value": 4.3, "unit": "fold"},
      {"measurement": "Tmax", "setting": "2 mg/kg", "value": 1, "unit": "h"}
    ]}
  ]
}
